Measured values from patent US20130338077A1 (INDIANA UNIVERSITY RESEARCH AND TECHNOLOGY, published 2013).

By UniProt entry, the sequences of proteins in these tests, tags left out.
UniProt Q04206, whole entry: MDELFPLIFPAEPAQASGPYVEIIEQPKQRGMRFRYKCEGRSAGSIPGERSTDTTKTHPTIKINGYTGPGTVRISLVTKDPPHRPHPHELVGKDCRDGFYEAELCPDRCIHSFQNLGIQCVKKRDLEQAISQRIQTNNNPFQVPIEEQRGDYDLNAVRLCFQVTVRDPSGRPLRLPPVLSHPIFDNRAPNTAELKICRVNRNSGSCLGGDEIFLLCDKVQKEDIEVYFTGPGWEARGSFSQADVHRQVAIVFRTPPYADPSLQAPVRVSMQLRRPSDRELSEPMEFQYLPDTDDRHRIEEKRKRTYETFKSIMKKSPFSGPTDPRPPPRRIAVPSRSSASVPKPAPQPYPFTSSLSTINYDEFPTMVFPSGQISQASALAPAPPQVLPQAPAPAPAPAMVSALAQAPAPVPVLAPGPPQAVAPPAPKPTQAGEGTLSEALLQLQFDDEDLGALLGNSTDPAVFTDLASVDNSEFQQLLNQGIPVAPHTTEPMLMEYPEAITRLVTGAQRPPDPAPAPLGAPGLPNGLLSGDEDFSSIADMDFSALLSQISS

Target: T1, recombinant human p65 protein, full-length, with DDK (r-p65:DDK) (human, UniProt Q04206 1-551)
T1 construct: mature; also called full-length r-p65:DDK; p65 subunit of NF-kB; not shown: DDK tag
Assay: kinetic ELISA, plate-bound r-GILZ probed with r-p65:DDK; Scatchard plot and linear regression; plate-bound r-GILZ (full-length protein), not the peptide
Method: High Bind ELISA plates coated with increasing concentrations of GILZ-P (3.9-250 mM) or r-GILZ (0.2-1.8 μM) were probed with 40 μM r-p65 (E) or r-p65AC14 (D) and detected with anti-DDK (E) and anti-p65 mAb (D) followed by trinitrobenzene substrate. Absorbance was read at 605 nm over a period of time between 0 and 300 s with a mixing time of 0.30 s and a 5-s interval between readings prior to stopping. The velocity of r-GILZ-p65 (F) and GILZ-P-p65 (G) reactions was measured as mean optical density/min. […]
High binding ELISA plates coated with 40 μM r-p65/r-GILZ were probed with cytoplasmic/nuclear extracts, respectively, of CD4+ peripheral blood mononuclear cells stimulated with purified protein derivative (10 units/ml) for 48 h in the presence of dexamethasone (100 μg/ml). Binding of the plate-bound r-p65 with cytoplasmic GILZ and the plate-bound GILZ with nuclear p65 was detected with anti-GILZ mAb or anti-p65 mAb, respectively, followed by trinitrobenzene substrate. For detecting direct interaction of r-GILZ (5-40 μM), captured wells were probed with r-p65 (0.325-40 μM) at 22° C. for 2 h and detected with peroxidase-conjugated anti-GILZ mAb followed by trinitrobenzene substrate. Alternatively plates coated with GILZ-P, control-P (3.9-250 μM), r-GILZ (0.2-1.8 μM) were probed with 40 μM r-p65:DDK/p65ΔC14 and detected with anti-DDK/anti-p65 mAb, respectively. […]

Kd: 591 nM
B1: purified recombinant GILZ protein with C-terminal DDK (r-GILZ) (other)
chain: MNTEMYQTPMEVAVYQLHNFSISFFSSLLGGDVVSVKLDNSASGASVVAIDNKIEQAMDLVKNHLMYAVREEVEILKEQIRELVEKNSQLERENTLLKTLASPEQLEKFQSCLSPEEPAPESPQVPEAPGGSAV
notes: also called rh-GILZ; glucocorticoid induced leucine zipper; not shown: C-terminal DDK tag
